Measurements taken from patent publication US20060189679A1, “C10 cyclopropyl ester substituted taxane compositions” (priority 2005, published 2006).

System: Panc-1 human pancreatic tumor xenografts
Test: Panc-1 human tumor xenograft studies in nude mice

CC(=O)O[C@@]12CO[C@@H]1C[C@H](O)[C@@]1(C)C(=O)[C@H](OC(=O)C3CC3)C3=C(C)[C@@H](OC(=O)[C@H](O)[C@@H](NC(=O)OCC(C)C)c4ccco4)C[C@@](O)([C@@H](OC(=O)c4ccccc4)C12)C3(C)C (stereo partly drawn) [Compound 3102]
# Death NTR (Panc-e79, 30 mg/kg PO Q4D × 4): 0
# Death TR (Panc-e79, 30 mg/kg PO Q4D × 4): 0
#CR (Panc-e79, 30 mg/kg PO Q4D × 4): 0
#PR (Panc-e79, 30 mg/kg PO Q4D × 4): 1
#SD/PD (Panc-e79, 30 mg/kg PO Q4D × 4): 3
MDS to 1.2 g ± SEM (n) (Panc-e79, 30 mg/kg PO Q4D × 4): 32.0 ± 2.7 (2) days
Max. % BW Loss; Day (Panc-e79, 30 mg/kg PO Q4D × 4, Day 15): −0.4%;
# Death NTR (Panc-e79, 45 mg/kg PO Q4D × 4): 0
# Death TR (Panc-e79, 45 mg/kg PO Q4D × 4): 0
#CR (Panc-e79, 45 mg/kg PO Q4D × 4): 0
#PR (Panc-e79, 45 mg/kg PO Q4D × 4): 6
#SD/PD (Panc-e79, 45 mg/kg PO Q4D × 4): 0
Max. % BW Loss; Day (Panc-e79, 45 mg/kg PO Q4D × 4, Day 15): −6.7%;
#PR (Panc-e79, 45 mg/kg PO Q4D × 4, listed as compound 3102): 6/6
# Death NTR (Panc-e79, 60 mg/kg PO Q4D × 4): 0
# Death TR (Panc-e79, 60 mg/kg PO Q4D × 4): 0
#CR (Panc-e79, 60 mg/kg PO Q4D × 4): 0
#PR (Panc-e79, 60 mg/kg PO Q4D × 4): 6
#SD/PD (Panc-e79, 60 mg/kg PO Q4D × 4): 0
Max. % BW Loss; Day (Panc-e79, 60 mg/kg PO Q4D × 4, Day 15): −11.1%;
Max. % BW Loss; Day (Panc-e79, 60 mg/kg PO Q4D × 4, Day 15, listed as compound 3102): −11.1%
#PR (Panc-e79, 60 mg/kg PO Q4D × 4, listed as compound 3102): 6/6
# Death NTR (Panc-e87, 50 mg/kg PO Q4D × 4): 0
# Death TR (Panc-e87, 50 mg/kg PO Q4D × 4): 0
#CR (Panc-e87, 50 mg/kg PO Q4D × 4): 0
#PR (Panc-e87, 50 mg/kg PO Q4D × 4): 6
#SD/PD (Panc-e87, 50 mg/kg PO Q4D × 4): 0
Max. % BW Loss; Day (Panc-e87, 50 mg/kg PO Q4D × 4, Day 12): −1.4%;
#PR (Panc-e87, 50 mg/kg PO Q4D × 4, listed as compound 3102): 6/6
# Death NTR (Panc-e87, 60 mg/kg PO Q4D × 4): 0
# Death TR (Panc-e87, 60 mg/kg PO Q4D × 4): 0
#CR (Panc-e87, 60 mg/kg PO Q4D × 4): 0
#PR (Panc-e87, 60 mg/kg PO Q4D × 4): 6
#SD/PD (Panc-e87, 60 mg/kg PO Q4D × 4): 0
Max. % BW Loss; Day (Panc-e87, 60 mg/kg PO Q4D × 4, Day 12): −2.7%;
#PR (Panc-e87, 60 mg/kg PO Q4D × 4, listed as compound 3102): 6/6
# Death NTR (Panc-e87, 70 mg/kg PO Q4D × 4): 0
# Death TR (Panc-e87, 70 mg/kg PO Q4D × 4): 0
#CR (Panc-e87, 70 mg/kg PO Q4D × 4): 1
#PR (Panc-e87, 70 mg/kg PO Q4D × 4): 5
#SD/PD (Panc-e87, 70 mg/kg PO Q4D × 4): 0
Max. % BW Loss; Day (Panc-e87, 70 mg/kg PO Q4D × 4, Day 12): −9.9%;
Max. % BW Loss; Day (Panc-e87, 70 mg/kg PO Q4D × 4, Day 12, listed as compound 3102): −9.9%
# Death NTR (Panc-e92, 25 mg/kg IV Q4D × 4): 0
# Death TR (Panc-e92, 25 mg/kg IV Q4D × 4): 0
#CR (Panc-e92, 25 mg/kg IV Q4D × 4): 1
#PR (Panc-e92, 25 mg/kg IV Q4D × 4): 5
#SD/PD (Panc-e92, 25 mg/kg IV Q4D × 4): 0
Max. % BW Loss; Day (Panc-e92, 25 mg/kg IV Q4D × 4, Day 18): −6.1%;
# Death NTR (Panc-e92, 30 mg/kg IV Q4D × 4): 0
# Death TR (Panc-e92, 30 mg/kg IV Q4D × 4): 0
#CR (Panc-e92, 30 mg/kg IV Q4D × 4): 1
#PR (Panc-e92, 30 mg/kg IV Q4D × 4): 5
#SD/PD (Panc-e92, 30 mg/kg IV Q4D × 4): 0
Max. % BW Loss; Day (Panc-e92, 30 mg/kg IV Q4D × 4, Day 18): −6.0%;
# Death NTR (Panc-e95, 15 mg/kg PO Q7D × 3): 0
# Death TR (Panc-e95, 15 mg/kg PO Q7D × 3): 0
MDS to 1.2 g ± SEM (n) (Panc-e95, 15 mg/kg PO Q7D × 3): 29.0 ± 2.2 days
Max. % BW Loss; Day (Panc-e95, 15 mg/kg PO Q7D × 3, Day 13): −1.3%;
# Death NTR (Panc-e95, 30 mg/kg PO Q4D × 4): 0
# Death TR (Panc-e95, 30 mg/kg PO Q4D × 4): 0
MDS to 1.2 g ± SEM (n) (Panc-e95, 30 mg/kg PO Q4D × 4): 49.8 days
# Death NTR (Panc-e95, 30 mg/kg PO Q7D × 3): 0
# Death TR (Panc-e95, 30 mg/kg PO Q7D × 3): 0
MDS to 1.2 g ± SEM (n) (Panc-e95, 30 mg/kg PO Q7D × 3): 46.8 ± 3.6 days
# Death NTR (Panc-e95, 40 mg/kg PO Q4D × 4): 0
# Death TR (Panc-e95, 40 mg/kg PO Q4D × 4): 0
MDS to 1.2 g ± SEM (n) (Panc-e95, 40 mg/kg PO Q4D × 4): 59.5 days
Max. % BW Loss; Day (Panc-e95, 40 mg/kg PO Q4D × 4, Day 16): −6.3%;
# Death NTR (Panc-e95, 50 mg/kg PO Q4D × 4): 0
# Death TR (Panc-e95, 50 mg/kg PO Q4D × 4): 0
Max. % BW Loss; Day (Panc-e95, 50 mg/kg PO Q4D × 4, Day 16): −2.5%;
# Death NTR (Panc-e95, 60 mg/kg PO Q4D × 4): 0
# Death TR (Panc-e95, 60 mg/kg PO Q4D × 4): 0
Max. % BW Loss; Day (Panc-e95, 60 mg/kg PO Q4D × 4, Day 13): −8.2%;
# Death NTR (Panc-e95, 60 mg/kg PO Q7D × 3): 0
# Death TR (Panc-e95, 60 mg/kg PO Q7D × 3): 0
Max. % BW Loss; Day (Panc-e95, 60 mg/kg PO Q7D × 3, Day 13): −4.5%;
# Death NTR (Panc-e95, 70 mg/kg PO Q4D × 4): 0
# Death TR (Panc-e95, 70 mg/kg PO Q4D × 4): 0
Max. % BW Loss; Day (Panc-e95, 70 mg/kg PO Q4D × 4, Day 16): −11.7%;
# Death NTR (Panc-e95, 80 mg/kg PO Q4D × 4): 0
# Death TR (Panc-e95, 80 mg/kg PO Q4D × 4): 0
Max. % BW Loss; Day (Panc-e95, 80 mg/kg PO Q4D × 4, Day 13): −9.7%;
# Death NTR (Panc-e95, 90 mg/kg PO Q7D × 3): 0
# Death TR (Panc-e95, 90 mg/kg PO Q7D × 3): 0
Max. % BW Loss; Day (Panc-e95, 90 mg/kg PO Q7D × 3, Day 20): −14.8%;
# Death NTR (Panc-e95, 120 mg/kg PO Q7D × 3): 0
# Death TR (Panc-e95, 120 mg/kg PO Q7D × 3): 0
Max. % BW Loss; Day (Panc-e95, 120 mg/kg PO Q7D × 3, Day 23): −12.0%;
# Death NTR (Panc-e95, 150 mg/kg PO Q7D × 3): 0
# Death TR (Panc-e95, 150 mg/kg PO Q7D × 3): 2
Max. % BW Loss; Day (Panc-e95, 150 mg/kg PO Q7D × 3, Day 27): −25.8%;
# Death NTR (Panc-e95, 180 mg/kg PO Q7D × 3): 0
# Death TR (Panc-e95, 180 mg/kg PO Q7D × 3): 0
Max. % BW Loss; Day (Panc-e95, 180 mg/kg PO Q7D × 3, Day 27): −26.9%;
